Molecular target: T1, rat MCT1 (Rattus norvegicus, UniProt P53987)
T1 sequence (P53987 1-494): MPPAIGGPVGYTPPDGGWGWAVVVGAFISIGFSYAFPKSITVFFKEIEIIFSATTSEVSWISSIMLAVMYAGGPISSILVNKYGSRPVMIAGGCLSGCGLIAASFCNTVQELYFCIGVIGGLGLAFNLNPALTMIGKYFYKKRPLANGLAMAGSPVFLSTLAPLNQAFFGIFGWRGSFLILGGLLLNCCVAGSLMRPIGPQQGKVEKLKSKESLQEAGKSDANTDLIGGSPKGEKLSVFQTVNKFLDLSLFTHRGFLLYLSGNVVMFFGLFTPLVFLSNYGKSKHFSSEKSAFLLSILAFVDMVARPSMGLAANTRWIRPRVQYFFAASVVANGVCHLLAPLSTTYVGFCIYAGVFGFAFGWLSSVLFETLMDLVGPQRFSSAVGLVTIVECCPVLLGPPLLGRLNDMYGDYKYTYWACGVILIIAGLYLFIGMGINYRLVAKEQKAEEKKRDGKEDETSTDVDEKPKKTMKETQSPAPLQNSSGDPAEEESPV
Test: L-lactate transport inhibition of MCT1 expressed in yeast
Format: cell-based

SMILES: COc1ccc2c(c1)OC(O)(C(F)(F)C(F)(F)F)CC2=O (stereo not shown) [MMV007839]
- lower efficiency on MCT1 than on PfFNT: 300 times
